Assay results published in publication PMC5189922 (Journal of medicinal chemistry, 2016).

Protein sequences, listed by entry. Tags and fused reporters are not part of them.
UniProt P35372, whole entry: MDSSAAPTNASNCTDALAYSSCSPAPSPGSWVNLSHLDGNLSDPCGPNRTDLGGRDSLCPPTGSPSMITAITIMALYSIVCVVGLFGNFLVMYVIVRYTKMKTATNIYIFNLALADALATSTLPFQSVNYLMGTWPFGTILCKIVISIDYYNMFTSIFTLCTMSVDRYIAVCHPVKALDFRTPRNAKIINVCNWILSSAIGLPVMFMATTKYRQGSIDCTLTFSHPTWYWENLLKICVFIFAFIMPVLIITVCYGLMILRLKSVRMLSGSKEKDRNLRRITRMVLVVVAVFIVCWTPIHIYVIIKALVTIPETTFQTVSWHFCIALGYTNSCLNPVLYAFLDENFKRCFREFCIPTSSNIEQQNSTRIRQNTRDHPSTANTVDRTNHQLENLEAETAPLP

Assays:
human µ-opioid receptor = human µ-opioid receptor (Homo sapiens, UniProt P35372); format: cell-based
[1] = Accelerating rotarod performance assay; conditions: 10 mg/kg i.p., 4 to 40 rpm over 300 s
[2] = Conditioned place preference; conditions: 5 mg/kg and 10 mg/kg i.p., male Sprague Dawley rats, vs vehicle

Compound	Selectivity κ/µ (human µ-opioid receptor)	other results
COC(=O)[C@@H]1C[C@H](OC(C)=O)C(=O)[C@H]2[C@@]1(C)CC[C@H]1C(=O)O[C@H](c3ccoc3)C[C@]21C [Compound 1a, salvinorin A, reference compound]		EC50 (human µ-opioid receptor; read-out: EC50 ± SD µ): > 10 µM
COC(=O)[C@@H]1C=C(OC(=O)c2ccc(Cl)cc2)C(=O)[C@H]2[C@@]1(C)CC[C@H]1C(=O)O[C@H](c3ccoc3)C[C@]21C [Compound 13b]	>330	
COC(=O)[C@@H]1C=C(OC(=O)c2ccc(C)cc2)C(=O)[C@H]2[C@@]1(C)CC[C@H]1C(=O)O[C@H](c3ccoc3)C[C@]21C [Compound 16b]	>450	
COC(=O)[C@@H]1C=C(OC(=O)c2ccc([N+](=O)[O-])cc2)C(=O)[C@H]2[C@@]1(C)CC[C@H]1C(=O)O[C@H](c3ccoc3)C[C@]21C [Compound 19b]	>320	
CN1CC[C@]23c4c5ccc(O)c4O[C@H]2[C@@H](O)C=C[C@H]3[C@H]1C5 [Morphine, morphine, reference compound]		motor coordination / sedation on rotarod [1]: significant decrease in motor coordination; conditioned place preference (CPP score) [2]: significant place preference
